For the assay, the target named is hTAS2R44 (Homo sapiens, UniProt P59538, L162M). As to the kind of experiment: cell-based. The text has this:
These cells stably express a chimeric G protein constructed from human Gα16 and rat gustducin. Finally, we seeded the transfected cells at a density of 3×10^3 cells per well into 96-well black-wall, clear-bottom microtiter plates (Greiner).
Co-transfection of TAS2Rs with gustducin and phospholipase-Cβ2 into HEK-293 cells. Alternatively, we transfected simultaneously plasmid DNAs encoding one of the TAS2Rs, phospholipase-Cβ2 and α-gustducin into HEK-293 cells using the lipofectamine method. […] Thereafter, the transfected cells were seeded at a density of 3×10^3 cells per well into 96-well black-wall, clear-bottom microtiter plates (Greiner).
Thereafter, cells were gently washed in HBS by an automated plate washer (Denley Cellwash, Labsystenms) and transferred to the FLIPR (Molecular Devices). The FLIPR integrates an argon laser excitation source, a 96-well pipettor, and a detection system utilizing a Charged Coupled Device imaging camera. […] Fluorescence data were collected 1 min before and 10 min after stimulation. Data were collected every 6 s before and every 1 s after agonist stimulation. […] Agonist responses were quantified using the amplitudes of the fluorescence peaks. […] Calcium traces were determined in triplicate of mock-transfected cells stimulated with the same concentration of tastant.

Protein sequences, listed by entry. Tags and fused reporters are not part of them.
UniProt P59538, whole entry L162M: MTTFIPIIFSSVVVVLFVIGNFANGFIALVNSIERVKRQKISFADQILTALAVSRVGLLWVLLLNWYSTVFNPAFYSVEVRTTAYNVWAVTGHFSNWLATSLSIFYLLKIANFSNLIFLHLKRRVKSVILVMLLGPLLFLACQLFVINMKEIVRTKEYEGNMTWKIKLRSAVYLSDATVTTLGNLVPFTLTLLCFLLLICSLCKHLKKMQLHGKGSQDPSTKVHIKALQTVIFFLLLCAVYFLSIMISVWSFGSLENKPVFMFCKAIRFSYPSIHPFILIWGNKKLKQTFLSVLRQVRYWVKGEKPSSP

As usually defined, the EC50 is the concentration needed to bring the measured effect to its halfway point. A higher EC50 goes with lower potency in that assay. As to `CC1=CC(=O)NS(=O)(=O)O1` [Acesulfame K], the EC50 was found to be 3 mM.
